Compound activity deposited in PubChem by Broad Institute.
The list is not random: actives were taken first. Their share in the collection is about 2.8%.
esBAF inh: inhibitors of esBAF chromatin remodeling in mouse ES cells; Bmi1-luciferase knock-in reporter, 24 h; 100% = twice the neutral-well signal; reporter increase, % at 12.5 µM; hit rate 2% among 350,000; in the data active means activation above about 40%; inconclusive means no clear call, values can overlap the other calls;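 further: 0% = median of the plate's neutral control wells and 100% = double that signal; a rise in the Bmi1 reporter signal indicates esBAF inhibition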
Wnt bcat act: activates Wnt/beta-catenin signaling in a reporter cell assay; activator, plate reader; activation, % at 9.35 µM; hit rate 1.2% among 300,000; AID 743398; in the data active means activation above about 30%, passing the limit was not always enough; inconclusive means no clear call, values can overlap the other calls;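 further: 0% = neutral control wells and 100% = positive control wells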
MITF act: MITF TRPM1 promoter activation in melanoma cells; SK-MEL-5 TRPM1-promoter luciferase, 24 h; % of positive control, neutral wells = 0; activation, % at 12.5 µM; hit rate 0.75% among 300,000; AID 588334;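 active means mean activation of at least 80% with every replicate also reaching 80%; inconclusive means mean reaches 80% but some replicate falls short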;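 further: 0% = neutral control wells and 100% = parthenolide positive control wells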
PglD inh: blocks C. jejuni PglD acetyltransferase activity. purified PglD enzyme, DTNB colorimetric CoA detection. inhibition, % at 12.5 µM. hit rate 0.098% among 360,000; in the data active means inhibition above about 16%, passing the limit was not always enough; inconclusive means no clear call, values can overlap the other calls
miR-122 sensor: miR-122 inhibition in Huh7 cells; activation (reporter increase), % at 12.5 µM; Huh7 miR-122 Renilla luciferase sensor, 48 h; neutral wells = 0, positive control = 100; hit rate 0.3% among 340,000;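 active means mean replicate activation score at least 90 and every replicate individually at or above 90; inconclusive means only one of the two criteria met; inactive means neither criterion met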;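 further: higher luciferase means less miR-122 activity so hits act as miR-122 inhibitors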
UUG fidelity: modulators of yeast start codon fidelity, primary screen, whole organism, S. cerevisiae, single point, plate reader | AID 602363, 2012 | S. cerevisiae UUG-firefly luciferase reporter, luminescence/redox ratio | activity score, % at 18.7 µM | hit rate 0.13% among 350,000;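 active = replicate mean at a twofold rise or more, about +100% in these data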;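 also: firefly luciferase made from a UUG start codon reports start codon fidelity; reporter light over untreated wells divided by growth signal over untreated wells; some hits fall short of that in this replicate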
An asterisk follows results filed as active; ? = inconclusive; · = no result; [ ] = dose if it differs, or a comment.

item | canonical_smiles | MITF act | miR-122 sensor | esBAF inh | Wnt bcat act | UUG fidelity | PglD inh
1 | CCCC#Cc1cnc2c(c1)C(=O)N([C@@H](C)CO)C[C@@H](C)[C@@H](CN(C)C(=O)Cc1ccncc1)O2 | · | -6.5[16.7 µM] | -0.1 | · | -26.6 | -2.0
2 | CCCc1cnc(N2CCN(C(=S)NC)CC2)nc1 | · | -11.5 | 37.2 | 39.7* | · | ·
3 | Cc1ccc(S(=O)(=O)N(C)C)cc1NC(=O)CCc1ccccc1 | -2.5 | · | · | 48.2* | · | ·
4 | Cc1ccc(S(=O)(=O)N(C)C)cc1NC(=O)CCc1c[nH]c2ccccc12 | 6.4 | · | · | -7.7 | · | ·
5 | Cc1ccc(NC(=O)CCc2ccccc2)cc1C | · | 0.6 | 52.2* | 1.6 | 2.2 | 1.6
6 | Cc1cccc(NC(=O)Cc2noc3ccccc23)c1 | · | -5.1 | 60.0* | · | -16.6 | 0.3
7 | Cc1cccc(NC(=O)CCCc2ccccc2)c1 | · | 3.9 | 63.3* | 17.4 | -2.1 | -1.0
8 | COc1ccc2c(c1)CC/C(=C\C=C\c1ccccc1)C2=O | · | -2.4 | ? | 31.1* | -22.7 | -2.1
9 | CC(=O)Oc1ccc(/C=C2/CCc3ccccc3C2=O)cc1 | 75.1 | -1.1 | 51.6* | 12.7 | -67.4 | 2.7
10 | O=C1/C(=C/Nc2ccc3c(c2)OCO3)CCc2ccccc21 | -13.6 | 8.3 | · | · | -58.1 | 0.7
11 | COc1ccc(/C=C2\CCc3ccccc3C2=O)cc1OC | 29.3 | 0.9 | 39.8 | · | -14.6 | 1.7
12 | COc1cccc(/C=C2\CCc3ccccc3C2=O)c1 | 66.0 | · | 42.2 | 35.2* | -73.6 | -2.7
13 | COc1ccc2c(c1)CC/C(=C\Nc1ccc3c(c1)OCO3)C2=O | ? | -5.9 | 53.2* | 26.1 | -29.5 | 1.5
14 | COc1cccc(C=C2Cc3ccccc3C2=O)c1 | · | · | · | -1.7 | · | ·
15 | COc1ccc(NC(=O)c2cccs2)c([N+](=O)[O-])c1 | 45.8 | -1.8 | 86.3* | · | -22.0 | -1.7

The list goes on:
item | canonical_smiles | MITF act | miR-122 sensor | esBAF inh | Wnt bcat act | UUG fidelity | PglD inh
16 | COc1ccc(NC(=O)c2sccc2C)c([N+](=O)[O-])c1 | 51.4 | -10.8 | 54.6* | -2.1 | -4.1 | 4.7
17 | COc1cc(NC(=O)COc2ccccc2Cl)ccc1NC(=O)c1cccs1 | 34.5 | -7.9 | 26.0 | -8.3 | -6.0 | 0.1
18 | COc1cc(NC(=O)COc2ccccc2[N+](=O)[O-])ccc1NC(=O)c1cccs1 | -73.6 | -18.0 | 49.9* | 13.6 | -9.8 | 3.1
19 | C[C@H](CO)N1C[C@H](C)[C@H](CN(C)Cc2ccc(Cl)c(Cl)c2)Oc2ccc(NC(=O)CCN3CCOCC3)cc2CC1=O | · | -0.3[16.7 µM] | 0.2 | · | -9.3 | -2.1
20 | O=C([C@@H]1[C@@H](CO)[C@@H]2Cn3c(ccc(C4=CCCC4)c3=O)[C@@H]2N1CC1CC1)N1CCCCC1 | · | · | 3.9 | · | · | -2.4
21 | Cc1ccc(S(=O)(=O)Nc2cccc3c2O[C@H](CN(C)Cc2ccc(C(F)(F)F)cc2)[C@@H](C)CN([C@H](C)CO)C3=O)cc1 | · | 62.6[16.7 µM] | 0.3 | · | 11.9 | -0.9
22 | COCCNC(=O)CSc1nc2ccc(N3CCOCC3)cc2c(=O)n1Cc1ccc(OC)cc1 | · | 21.0 | 77.6* | · | -13.4 | 1.7
23 | CCn1c(SCC(=O)Nc2ccc(N3CCOCC3)cc2)nnc1-c1ccc(OC)cc1 | -1.4 | 141.6* | · | -0.9 | · | ·
24 | CCn1c(C)nnc1SCC(=O)Nc1ccc(N2CCOCC2)cc1 | -6.5 | · | 4.1 | 0.6 | -10.8 | 6.5
25 | CCCCNC(=O)CSc1nc2ccc(N3CCOCC3)cc2c(=O)n1Cc1ccc(OC)cc1 | 48.4 | 7.6 | 64.3* | 14.8 | -19.7 | 0.1
26 | O=S(=O)(c1ccc(F)cc1)N1CC[C@@H]2[C@H](CO)Nc3ccc(-c4ccccc4F)cc3[C@@H]21 | · | -9.0[16.7 µM] | -8.1 | · | -8.9 | 2.4
27 | COc1ccccc1C(=O)Nc1ccc(NC(=O)c2ccco2)cn1 | 92.0* | 0.9 | 64.2* | 17.9 | · | ·
28 | O=C(Cc1ccccc1)Nc1ccc(NC(=O)c2ccco2)nc1 | · | -1.9 | 46.2* | 40.3* | -12.3 | 6.0
29 | O=C(Nc1ccc(NC(=O)c2ccco2)nc1)c1ccco1 | -2.3 | · | · | -3.8 | · | ·
30 | O=C(Nc1ccc(NC(=O)C23CC4CC(CC(C4)C2)C3)cn1)c1ccco1 | 96.2* | -4.8 | 48.9* | · | -11.0 | 2.6

Other entries
item | canonical_smiles | MITF act | miR-122 sensor | esBAF inh | Wnt bcat act | UUG fidelity | PglD inh
31 | O=C(Nc1ccc(NC(=O)c2ccccc2)nc1)c1ccncc1 | 11.8 | -12.5 | 42.7* | 23.2 | · | ·
32 | C[C@H](CO)N1C[C@H](C)[C@@H](CN(C)S(=O)(=O)c2ccc(Cl)cc2)Oc2ccc(NC(=O)NC3CCCCC3)cc2CC1=O | · | 5.9[16.7 µM] | 4.0 | · | -5.8 | -8.7
33 | CN1C(=O)c2cc(NC(=O)c3cscn3)ccc2OC[C@@H]2O[C@@H](CC(=O)NCC3CC3)CC[C@@H]21 | · | 0.0[16.7 µM] | 1.7 | · | -1.6 | -0.6
34 | O=C(C[C@H]1C=C[C@@H](NC(=O)CC2CC2)[C@H](CO)O1)NCc1ccc(Cl)cc1 | · | · | 0.2 | · | -17.3 | 8.0
35 | C/C(=N\Nc1ccccn1)c1ccc(C(C)C)cc1 | 125.1* | -3.2 | 63.9* | 4.5 | -21.1 | -2.9
36 | C/C(=N\Nc1ccccn1)c1ccc2c(c1)OCO2 | 35.5 | 2.1 | 61.3* | 10.2 | -4.0 | -6.8
37 | C/C(=N\Nc1nc2ccccc2[nH]1)c1ccc2c(c1)OCO2 | 26.7 | -6.5 | 11.5 | · | -20.1 | 8.5
38 | C/C(=N\Nc1ccccn1)c1ccc(S(=O)(=O)NCc2ccco2)cc1 | 15.7 | 110.1* | 15.2 | · | · | ·
39 | CO[C@@H]1CN(C)C(=O)c2ccc(NC(=O)NC3CCCCC3)cc2OC[C@@H](C)N(CCc2ccccc2)C[C@H]1C | · | · | 14.4 | · | 11.9 | -1.0
40 | CO[C@H]1CN(C)C(=O)c2ccc(NS(C)(=O)=O)cc2OC[C@H](C)N(C(=O)C2CCCC2)C[C@H]1C | · | 1.4[16.7 µM] | -3.0 | · | 6.6 | 2.9
41 | C[C@H]1CN([C@@H](C)CO)S(=O)(=O)c2ccc(C#CCC3CCCC3)cc2O[C@H]1CN(C)C(=O)c1cnccn1 | · | -10.3[16.7 µM] | 5.8 | · | 10.5 | 7.6
42 | COc1ccc(NC(=O)CC2C(=O)N(C)C(=S)N2Cc2ccc3c(c2)OCO3)cc1 (centres undefined) | 2.9 | 2.9 | -1.4 | 35.4* | · | ·
43 | O=C(OCc1ccccc1Cl)c1ccccc1C(=O)c1ccccc1 | 16.5 | 136.9* | 25.2 | · | -9.1 | 8.0
44 | O=C(OCc1ccccc1Cl)c1cccnc1Cl | 7.8 | 0.6 | 4.2 | · | -6.1 | -5.8
45 | C=CCn1c(C)cc(C(=O)COC(=O)c2cncc(Br)c2)c1C | 92.8* | -1.9 | 20.2 | -3.2 | -6.3 | -1.3

The results go on:
item | canonical_smiles | MITF act | miR-122 sensor | esBAF inh | Wnt bcat act | UUG fidelity | PglD inh
46 | C=CCn1c(C)cc(C(=O)COc2ncnc3sccc23)c1C | 73.5 | 0.5 | -22.8 | 29.6 | -50.3 | 0.1
47 | CCOc1ccc(-c2cc(C(=O)NC3CCCCC3)[nH]n2)c(C)c1 | · | 1.3 | 57.4* | 3.7 | -14.2 | -2.5
48 | COc1ccc(F)cc1-c1cc(C(=O)NC2CCCCC2)[nH]n1 | · | 7.8 | 49.3* | 2.4 | -17.4 | 2.5
49 | CC(C)(C)OC(=O)N1CCN(C(=O)Nc2ccc3c(c2)OCCO3)CC1 | 7.9 | -4.0 | 47.8* | 12.0 | -8.0 | 6.1
50 | CC(C)(C)OC(=O)N1CCCN(C(=O)Nc2ccccc2)CC1 | · | -3.5 | · | -3.1 | -11.0 | 5.0
51 | Cc1cccc(C)c1N1CCN(C(=O)Nc2ccc3c(c2)OCCO3)CC1 | · | -0.7 | 21.9 | 44.5* | -4.7 | -4.8
52 | O=C(Nc1ccc2c(c1)OCCO2)N1CCN(c2ccc(F)cc2)CC1 | 0.1 | -6.4 | 24.4 | 4.3 | -14.8 | 0.1

Arranged by formula weight (rising): 5 of the compounds above
item | canonical_smiles | MITF act | miR-122 sensor | esBAF inh | Wnt bcat act | UUG fidelity | PglD inh
48 | COc1ccc(F)cc1-c1cc(C(=O)NC2CCCCC2)[nH]n1 | · | 7.8 | 49.3* | 2.4 | -17.4 | 2.5
50 | CC(C)(C)OC(=O)N1CCCN(C(=O)Nc2ccccc2)CC1 | · | -3.5 | · | -3.1 | -11.0 | 5.0
47 | CCOc1ccc(-c2cc(C(=O)NC3CCCCC3)[nH]n2)c(C)c1 | · | 1.3 | 57.4* | 3.7 | -14.2 | -2.5
52 | O=C(Nc1ccc2c(c1)OCCO2)N1CCN(c2ccc(F)cc2)CC1 | 0.1 | -6.4 | 24.4 | 4.3 | -14.8 | 0.1
45 | C=CCn1c(C)cc(C(=O)COC(=O)c2cncc(Br)c2)c1C | 92.8* | -1.9 | 20.2 | -3.2 | -6.3 | -1.3
